From US20250084101A1, “COMPOUND FOR INHIBITING AND DEGRADING IRAK4, AND PHARMACEUTICAL COMPOSITION AND PHARMACEUTICAL APPLICATION THEREOF” (XIZANG HAISCO PHARMACEUTICAL CO., LTD., priority 2022, published 2025) come the findings set out here.

Chains of the proteins cited; added tags and fusions are not shown.
UniProt Q9NWZ3, whole entry: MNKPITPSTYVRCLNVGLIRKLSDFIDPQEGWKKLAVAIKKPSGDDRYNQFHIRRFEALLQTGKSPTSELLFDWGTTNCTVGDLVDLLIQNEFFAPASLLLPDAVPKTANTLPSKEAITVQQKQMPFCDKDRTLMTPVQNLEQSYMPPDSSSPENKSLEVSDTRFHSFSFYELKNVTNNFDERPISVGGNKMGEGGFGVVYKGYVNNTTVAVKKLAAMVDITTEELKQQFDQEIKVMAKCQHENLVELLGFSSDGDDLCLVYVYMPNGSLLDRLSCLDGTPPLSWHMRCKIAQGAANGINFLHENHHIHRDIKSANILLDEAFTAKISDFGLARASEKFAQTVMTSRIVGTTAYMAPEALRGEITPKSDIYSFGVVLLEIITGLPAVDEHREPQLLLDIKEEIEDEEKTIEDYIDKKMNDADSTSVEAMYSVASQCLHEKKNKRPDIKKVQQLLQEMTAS
UniProt Q12809, whole entry: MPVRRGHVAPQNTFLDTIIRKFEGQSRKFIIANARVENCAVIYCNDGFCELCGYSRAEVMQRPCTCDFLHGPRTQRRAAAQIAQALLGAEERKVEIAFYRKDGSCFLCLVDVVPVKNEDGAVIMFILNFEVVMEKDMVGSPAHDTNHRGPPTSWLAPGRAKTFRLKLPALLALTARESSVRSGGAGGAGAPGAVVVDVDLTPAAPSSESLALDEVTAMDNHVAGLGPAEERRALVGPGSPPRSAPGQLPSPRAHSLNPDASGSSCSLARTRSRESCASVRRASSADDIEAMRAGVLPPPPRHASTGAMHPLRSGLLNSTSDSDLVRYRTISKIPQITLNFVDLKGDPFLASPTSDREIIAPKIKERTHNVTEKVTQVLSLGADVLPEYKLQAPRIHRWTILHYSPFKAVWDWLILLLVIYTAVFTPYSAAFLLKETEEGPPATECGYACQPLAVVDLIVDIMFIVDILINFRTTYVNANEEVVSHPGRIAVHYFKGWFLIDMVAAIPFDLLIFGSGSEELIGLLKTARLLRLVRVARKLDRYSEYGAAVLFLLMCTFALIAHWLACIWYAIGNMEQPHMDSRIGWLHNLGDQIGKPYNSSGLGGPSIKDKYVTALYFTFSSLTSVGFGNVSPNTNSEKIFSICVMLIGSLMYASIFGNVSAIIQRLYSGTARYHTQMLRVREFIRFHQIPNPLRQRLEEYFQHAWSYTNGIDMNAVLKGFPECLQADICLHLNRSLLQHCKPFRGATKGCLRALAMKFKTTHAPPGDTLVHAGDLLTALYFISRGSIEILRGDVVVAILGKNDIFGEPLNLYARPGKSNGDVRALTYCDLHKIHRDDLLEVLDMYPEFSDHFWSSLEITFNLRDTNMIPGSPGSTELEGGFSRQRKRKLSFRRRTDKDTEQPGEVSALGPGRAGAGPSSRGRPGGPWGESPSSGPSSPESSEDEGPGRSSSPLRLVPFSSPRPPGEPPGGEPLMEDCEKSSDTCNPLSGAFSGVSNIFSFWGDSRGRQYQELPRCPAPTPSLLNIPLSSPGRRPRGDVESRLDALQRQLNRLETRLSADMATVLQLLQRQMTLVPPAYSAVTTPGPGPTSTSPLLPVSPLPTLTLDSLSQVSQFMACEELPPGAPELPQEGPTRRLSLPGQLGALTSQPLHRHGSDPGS

In series [1] the target is IRAK4 protein (Homo sapiens, UniProt Q9NWZ3). Kind of series: IRAK4 degradation activity in hPBMC cells (24 hours). On the procedure: hPBMC cells are human peripheral blood mononuclear cells. Peripheral venous blood was taken from healthy volunteers, and hPBMCs were isolated using Ficoll density gradient centrifugation (Ficoll-Paque™ PLUS 1.077, GE, Cat. 17-1140-02). Culture conditions: RPMI-1640+10% FBS+1% penicillin-streptomycin solution. The cells were cultured in an incubator at 37° C. and 5% CO2. The cells were plated in a 24-well plate at 1×10^6 cells/well. After plating, compounds at different concentrations were added, and the cells were cultured in an incubator at 37° C. and 5% CO2 for 24 hours. After the culture was completed, the cells were collected, and RIPA lysis buffer (beyotime, Cat. P0013B) was added. The cells were lysed on ice for 20 minutes, and then centrifuged at 12000 rpm at 4° C. for 10 minutes. The protein sample of the supernatant was collected, the protein was quantified using a BCA kit (Beyotime, Cat. P0009), and then the protein was diluted to 1 mg/mL. The expression of IRAK4 (CST, Cat. 4363S) and the internal reference cofilin (CST, Cat. 5175S) were detected using a fully automated western blot quantitative analyzer (Proteinsimple). The expression level of IRAK4 relative to the internal reference was calculated using compass software. […] An IRAK4 degradation-drug concentration curve was fit using Graphpad Prism 8 software, and the DC50 was calculated.

The target in series [2] is hERG potassium ion channel (Homo sapiens, UniProt Q12809). Kind of series: Effect on hERG potassium ion channel (manual patch-clamp, CHO cells). From the text:
Experimental platform: electrophysiological manual patch-clamp system
Cell line: Chinese hamster ovary (CHO) cell line stably expressing hERG potassium ion channel
Experimental method: In CHO (Chinese Hamster Ovary) cells stably expressing hERG potassium channel, whole cell patch-clamp technique was used to record hERG potassium channel current at room temperature. The glass microelectrode was made of a glass electrode blank (BF150-86-10, Sutter) by a puller. The tip resistance after filling the liquid in the electrode was about 2-5 MQ. The glass microelectrode can be connected to the patch-clamp amplifier by inserting the glass microelectrode into an amplifier probe. The clamping voltage and data recording were controlled and recorded by the pClamp 10 software through a computer. The sampling frequency was 10 kHz, and the filtering frequency was 2 kHz. […]
Data processing: Data analysis processing was carried out by using pClamp 10, GraphPad Prism 5 and Excel software. The inhibition degree of hERG potassium current (peak value of hERG tail current induced at −50 mV) at different compound concentrations was calculated by the following formula: […]
Compound IC50 was calculated using GraphPad Prism 5 software by fitting according to the following equation: […]
In general terms: The hERG channel carries a current that helps repolarise heart muscle cells.

Series [3] can be described thus: Pharmacokinetic test in mice. The settings on record: plasma, i.g. 10 mg/kg. On the procedure:
Experimental animals: Male ICR mice, about 25 g, 6 mice/compound, purchased from Chengdu Ddossy Experimental Animals Co., Ltd.
Test design: On the day of the experiment, 6 ICR mice were randomly grouped according to their body weights. The animals were fasted with water available for 12 to 14 h one day before the administration, and were fed 4 h after the administration.
• Vehicle for intravenous administration: 5% DMA+5% Solutol+90% Saline; • Vehicle for intragastric administration: 5% DMSO+30% PEG400+65% (20% SBE-CD); (DMSO: dimethyl sulfoxide; DMA: dimethylacetamide; Solutol: polyethylene glycol-15-hydroxystearate; PEG400: polyethylene glycol 400; SBE-β-CD: sulfobutyl-β-cyclodextrin; Saline: physiological saline)
Before and after the administration, 0.15 mL of blood was taken from the orbit of the animals under isoflurane anesthesia and placed in an EDTAK2 centrifuge tube. The blood was centrifuged at 5000 rpm and 4° C. for 10 min to collect plasma. The blood collection time points for the intravenous administration group and intragastric administration group were 0 min, 5 min, 15 min, 30 min, 1 h, 2 h, 4 h, 7 h and 24 h. Before analysis and detection, all samples were stored at −60° C. The samples were analyzed quantitatively by LC-MS/MS.

Molecules are shown by their SMILES. pIC50: −log10 of the molar value. Like-named read-outs stand apart in the source and are kept apart here.

Take `Cn1nc(C2CCC(=O)NC2=O)c2cccc(C#CCOC3CCN(C[C@H]4CC[C@H](n5cc(NC(=O)c6cnn7ccc(N8C[C@H]9C[C@@H]8CO9)nc67)c(C(F)F)n5)CC4)CC3)c21` (some centres unmarked): the “Remaining IRAK4 protein IRAK4%” value in series [1] (100 nM, relative to vehicle control) is “A (A ≤ 10%)”. Further, in series [2], the pIC50 – broadly, the IC50 on a negative log10 scale, so that one unit is a factor of ten – was 4.52 to 6.00.
Take `Cn1nc(C2CCC(=O)NC2=O)c2cccc(C#CCO[C@@H]3CCN(C[C@H]4CC[C@H](n5cc(NC(=O)c6cnn7ccc(N8CCO[C@H](CO)C8)nc67)c(C(F)F)n5)CC4)C[C@@H]3F)c21` (single isomer, unassigned): in series [1] (read-out: DC50 for IRAK4 protein degradation), the 50% degradation concentration (DC50) (in general, the midpoint of the concentration-degradation curve) was less than 0.02 µM. In addition, the AUC0-t in series [3] came to 3938 ± 1106 ng·h/mL. Further, in series [2] (read-out: IC50 for inhibitory effect on hERG potassium channel current, CHO cells stably expressing hERG, whole cell patch-clamp), the pIC50 is less than 4.40.
